## CycPeptMPDB entries from one study

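The data file gives no further conditions (lipid, pH, time, direction or concentration), and values from different papers need not be comparable. The list need not hold all peptides of the study. Entries at the database's floor value (log10 P of -10) are not listed.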

PAMPA is the parallel artificial membrane permeability assay, which has no cells and reads passive diffusion. P is given in units of 10^-6 cm/s (from log10 values with two decimals); larger means faster passage.

| compound | PAMPA (10^-6 cm/s) |
|---|---|
| CC(C)C[C@H]1NC(=O)[C@@H](C)N(C)C(=O)[C@H](Cc2ccccc2)NC(=O)CN(Cc2ccccc2)C(=O)[C@H]2CCCN2C(=O)C[C@H](Cc2ccccc2)NC1=O | 2.6 |
| CC(C)C[C@@H]1NC(=O)[C@@H](C)NC(=O)[C@H]2CCCN2C(=O)[C@H](Cc2ccccc2)NC(=O)[C@H](CC(C)C)NC(=O)[C@@H]2CCCN2C(=O)C[C@H](Cc2ccccc2)NC1=O | 0.69 |
| CCCN1CC(=O)N(C)[C@H](CC(C)C)C(=O)N[C@H](CC(C)C)C(=O)N2CCC[C@@H]2C(=O)N(C)[C@H](CC(C)C)C(=O)N[C@@H](Cc2ccccc2)C(=O)N2CCC[C@H]2C1=O | 6 |
| CC(C)C[C@@H]1NC(=O)[C@H]2CCCN2C(=O)[C@@H](CC(C)C)NC(=O)[C@@H](CC(C)C)N(C)C(=O)[C@@H](C)N(C)C(=O)[C@H]2CCCN2C(=O)[C@H](Cc2ccccc2)NC1=O | 0.23 |
| CC(C)C[C@@H]1C(=O)N2CCC[C@H]2C(=O)N(C)[C@@H](CC(C)C)C(=O)N[C@@H](Cc2ccccc2)C(=O)N[C@H](C)C(=O)N(C)[C@@H](CC(C)C)C(=O)N1C | 5.2 |
| CC(C)C[C@@H]1C(=O)N[C@@H](Cc2ccccc2)C(=O)N2CCC[C@@H]2C(=O)N[C@H](C)C(=O)N(Cc2ccccc2)CC(=O)N[C@@H](Cc2ccccc2)CC(=O)N2CCC[C@@H]2C(=O)N1C | 1.5 |
| CC(C)C[C@@H]1NC(=O)[C@H]2CCCN2C(=O)[C@H](CC(C)C)N(C)C(=O)[C@@H](CC(C)C)NC(=O)C[C@H](Cc2ccccc2)NC(=O)[C@@H]2CCCN2C(=O)[C@H](Cc2ccccc2)NC1=O | 4.1 |
| CC(C)C[C@H]1NC(=O)[C@H](CC(C)C)N(C)C(=O)[C@H](C)N(C)C(=O)[C@H]2CCCN2C(=O)[C@H](Cc2ccccc2)NC(=O)[C@H](CC(C)C)N(C)C(=O)[C@H]2CCCN2C1=O | 5 |
| CC(C)C[C@@H]1NC(=O)[C@H](C)N(C)C(=O)[C@@H]2CCCN2C(=O)[C@H](Cc2ccccc2)NC(=O)[C@@H](CC(C)C)NC(=O)[C@H]2CCCN2C(=O)CN(Cc2ccccc2)C1=O | 1.7 |
| CCCN1CC(=O)N(C)[C@H](CC(C)C)C(=O)N(Cc2ccccc2)CC(=O)N2CCC[C@@H]2C(=O)N(C)[C@@H](CC(C)C)C(=O)N[C@@H](Cc2ccccc2)C(=O)N2CCC[C@@H]2C1=O | 2.1 |
| CC(C)C[C@@H]1NC(=O)[C@H]2CCCN2C(=O)[C@H](CC(C)C)NC(=O)[C@@H](CC(C)C)N(C)C(=O)[C@@H](C)NC(=O)[C@H](Cc2ccccc2)NC1=O | 3.8 |
| CC(C)C[C@@H]1NC(=O)[C@@H](CC(C)C)N(C)C(=O)C[C@H](Cc2ccccc2)NC(=O)[C@H](Cc2ccccc2)NC(=O)[C@@H](CC(C)C)N(C)C(=O)[C@@H]2CCCN2C1=O | 5.8 |
| CC(C)C[C@H]1C(=O)N[C@@H](Cc2ccccc2)CC(=O)N2CCC[C@H]2C(=O)N(C)[C@@H](CC(C)C)C(=O)N[C@@H](Cc2ccccc2)C(=O)N2CCC[C@@H]2C(=O)N(C)[C@H](C)C(=O)N1C | 4.7 |
| CC(C)C[C@@H]1NC(=O)C[C@H](Cc2ccccc2)NC(=O)[C@H]2CCCN2C(=O)[C@H](Cc2ccccc2)NC(=O)[C@@H](CC(C)C)N(C)C(=O)[C@H]2CCCN2C(=O)[C@H](CC(C)C)N(C)C1=O | 1.7 |
| CC(C)C[C@@H]1NC(=O)C[C@H](Cc2ccccc2)NC(=O)[C@@H]2CCCN2C(=O)[C@H](Cc2ccccc2)NC(=O)[C@@H](CC(C)C)NC(=O)[C@@H]2CCCN2C(=O)[C@@H](CC(C)C)NC1=O | 1.8 |
| CC(C)C[C@@H]1NC(=O)C[C@H](Cc2ccccc2)NC(=O)[C@H](Cc2ccccc2)NC(=O)[C@H](CC(C)C)N(C)C(=O)[C@H]2CCCN2C(=O)[C@@H](CC(C)C)NC1=O | 5.4 |
| CC(C)C[C@@H]1C(=O)N[C@@H](Cc2ccccc2)C(=O)N2CCC[C@@H]2C(=O)N[C@@H](Cc2ccccc2)CC(=O)N[C@H](CC(C)C)C(=O)N[C@H](CC(C)C)C(=O)N2CCC[C@H]2C(=O)N1C | 2.5 |
| CC(C)C[C@H]1NC(=O)[C@@H]2CCCN2C(=O)CN(Cc2ccccc2)C(=O)[C@@H](CC(C)C)NC(=O)[C@@H](C)NC(=O)[C@H](Cc2ccccc2)NC1=O | 0.35 |
| CCCN1CC(=O)N[C@H](CC(C)C)C(=O)N[C@@H](CC(C)C)C(=O)N2CCC[C@@H]2C(=O)N(C)[C@H](CC(C)C)C(=O)N[C@@H](Cc2ccccc2)C(=O)N2CCC[C@@H]2C1=O | 6.8 |

A selection of 2 entries from above:

compound	PAMPA (10^-6 cm/s)
CC(C)C[C@H]1C(=O)N[C@@H](Cc2ccccc2)CC(=O)N2CCC[C@H]2C(=O)N(C)[C@@H](CC(C)C)C(=O)N[C@@H](Cc2ccccc2)C(=O)N2CCC[C@@H]2C(=O)N(C)[C@H](C)C(=O)N1C	4.7
CC(C)C[C@@H]1NC(=O)[C@H]2CCCN2C(=O)[C@H](CC(C)C)N(C)C(=O)[C@@H](CC(C)C)NC(=O)C[C@H](Cc2ccccc2)NC(=O)[C@@H]2CCCN2C(=O)[C@H](Cc2ccccc2)NC1=O	4.1

Data: CycPeptMPDB; original report Townsend et al. 2020, doi:10.26434/chemrxiv.13335941.v1.